The values that follow come from patent US7728155B2, “Dihydrobenzofuranyl alkanamines and methods for using same as cns agents” (Wyeth LLC, priority 2003, dated 2010).

The chains behind the UniProt entries cited, without tags or fusion partners. Residues count along the entry.
UniProt P28335, 33-458: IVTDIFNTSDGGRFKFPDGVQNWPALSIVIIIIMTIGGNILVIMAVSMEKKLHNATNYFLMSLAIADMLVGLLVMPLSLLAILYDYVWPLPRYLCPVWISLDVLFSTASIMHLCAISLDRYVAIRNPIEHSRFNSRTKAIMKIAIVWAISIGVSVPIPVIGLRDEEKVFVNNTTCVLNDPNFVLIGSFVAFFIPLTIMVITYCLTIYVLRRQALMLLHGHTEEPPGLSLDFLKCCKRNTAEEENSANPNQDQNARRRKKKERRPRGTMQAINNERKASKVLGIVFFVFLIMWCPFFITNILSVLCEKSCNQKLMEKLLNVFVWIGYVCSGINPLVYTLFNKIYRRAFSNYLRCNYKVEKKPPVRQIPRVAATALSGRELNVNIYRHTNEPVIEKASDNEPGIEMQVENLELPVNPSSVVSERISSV

The assay has as its target human 5-HT2C receptor (Homo sapiens, UniProt P28335). Nature of the assay: 5-HT2C receptor-stimulated calcium mobilization (FLIPR) in CHO cells. In kind it is cell-based. As to conditions: reference compounds, CHO cells expressing human 5-HT2C.

pEC50: −log10 of the molar value.

What is called pEC50 is the negative decadic logarithm of the EC50, by convention in mol/L. Regarding “1-(2,5-dimethoxy-4-iodophenyl)isopropylamine [DOI, reference compound]”, the pEC50 is 9.30.
